This note sets out measurements from patent publication US10052318B2, “Glutamate agents in the treatment of mental disorders” (YALE UNIVERSITY, priority 2005, dated 2018).

Read-outs that look alike come from different tables or passages of the source.

The data set deals with patients with serotonin reuptake inhibitor-resistant obsessive-compulsive disorder.

For `Nc1nc2ccc(OC(F)(F)F)cc2s1` [Riluzole, riluzole], the “HAM-A scores over time” value (F1,11.2=7.9, p=0.017) is recorded as “improved significantly”. In addition, the “Clinician administered CGI/GI scores over time” value (F1,16.2=20.99, p=0.0003) was “significantly improved”. Besides, under “above-described riluzole study (Coric et al. 2005)”, the “effect size in the comparisons of Y-BOCS between baseline and week 4” value is given as 0.86. Also, under “baseline”, the “Mean AST” value is listed as 19.1 (±5.7) and the “Mean CGI/GI” value is 4 (±0). Besides, where the note is “five responders”, the “Percent reduction in baseline Y-BOCS scores at end of study in responders” value is reported as 38-76%. In addition, where the note is “group of 13 patients, baseline”, the “Mean HAM-A at baseline” value is listed as 18.2 (±6.2), the “Mean HAM-D at baseline” value is 30 (113.7) and the “Mean Y-BOCS at baseline” value was 30.7 (±6.6). Further, the “Mean HAM-D at end of study” value (group of 13 patients, end of study) is 19.7 (±6.0). Also, the “Mean Y-BOCS at end of study” value (group of 13 patients, end of study (6-12 weeks)) is recorded as 17.7 (±8.6). The “increase in ALT in one patient” value (one patient, asymptomatic) is given as “nine-fold increase”. Besides, for the setting “same patient, repeat test, normalized to within two times the upper limits of normal by week three”, the “repeat ALT in that patient” value was “four-fold increase”. Besides, the “patients with >35% reduction in Y-BOCS scores” value (seven of thirteen patients) turned out to be 54%. Besides, the “reductions in baseline HAM-D scores by the end of the study” value (six out of thirteen patients with clinically significant improvement) is on record as 36-83%. Further, the “Mean CGI/GI” value (week 6) is given as 3.2 (±0.6). Also, the “Mean CGI/GI” value (week 9) is 2.66 (±0.5). Also, the “Mean CGI/GI” value (week 12) is listed as 2.33 (±1).
